1 compound from ChEMBL document CHEMBL1128551, “Decapeptide agonists of human C5a: the relationship between conformation and neutrophil response” (J Med Chem, 1995) can be followed below.

The target of this assay is T1, C5a anaphylatoxin chemotactic receptor 1 (Homo sapiens, UniProt P21730).
T1 sequence (P21730 whole entry): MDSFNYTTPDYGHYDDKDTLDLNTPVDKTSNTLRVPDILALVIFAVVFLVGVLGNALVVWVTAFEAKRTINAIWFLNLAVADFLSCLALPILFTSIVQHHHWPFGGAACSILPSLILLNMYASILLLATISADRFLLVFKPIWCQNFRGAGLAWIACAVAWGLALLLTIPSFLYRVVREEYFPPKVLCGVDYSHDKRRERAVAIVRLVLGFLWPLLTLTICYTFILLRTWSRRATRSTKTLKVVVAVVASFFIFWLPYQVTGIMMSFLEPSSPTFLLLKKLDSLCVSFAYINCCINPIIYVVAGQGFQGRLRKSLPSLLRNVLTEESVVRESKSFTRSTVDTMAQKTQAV
Kind of assay: Release of beta-glucuronidase from human polymorphonuclear leukocytes(PMN). The class given is functional. An outline of the steps: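 Human PMNs pretreated with cytochalasin B (5 μg/mL, 10 min, 37 °C). 10^6 cells incubated with stimulant 60 min at 37 °C, then centrifuged. Supernatant reacted with 0.01 M p-nitrophenyl β-D-glucuronide in 0.1 M sodium acetate pH 4 for 18 h, in triplicate. Stopped with 0.4 M glycine pH 10. EC50 from dose-response.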

Turning to `CSCC[C@H](NC(=O)[C@H](CC(=O)O)NC(=O)[C@H](CCCCN)NC(=O)[C@H](Cc1ccccc1)NC(=O)[C@H](CO)NC(=O)[C@@H](N)Cc1ccc(O)cc1)C(=O)N1CCC[C@H]1C(=O)N[C@@H](C)C(=O)N[C@H](C)C(=O)N[C@@H](CCCN=C(N)N)C(=O)O`, the concentration giving a half-maximal response (EC50) was over 1 mM.
